In patent US10407691B2 (priority 2014, dated 2019):

System: Arabidopsis seedlings
Test: Arabidopsis root growth assay
Assay type: in vivo, Arabidopsis thaliana
Conditions: At1g72300 mutant line SALK_072802C, 100 nM, 8 days

Structure (SMILES): CC(C)[C@H](NC(=O)[C@@H](N)Cc1c[nH]cn1)C(=O)NCC(=O)NCC(=O)NCC(=O)N[C@@H](CC(=O)O)C(=O)N[C@@H](Cc1ccc(OS(=O)(=O)O)cc1)C(=O)N1CCC[C@H]1C(=O)N1CCC[C@H]1C(=O)N1CCC[C@H]1C(=O)NCC(=O)N[C@@H](C)C(=O)N[C@@H](CC(N)=O)C(=O)N1CCC[C@H]1C(=O)N[C@@H](CCCCN)C(=O)N[C@@H](Cc1c[nH]cn1)C(=O)N[C@@H](CC(=O)O)C(=O)N1CCC[C@H]1C(=O)N1CCC[C@H]1C(=O)N1CCC[C@H]1C(=O)N[C@@H](CCCNC(=N)N)C(=O)O [RaxX21-sY, HVGGGDY^SPPPGANPKHDPPPR]
- root growth: increased root growth in a similar manner to that observed for treatment of wild type Col-0 seedlings
